Reference: patent US20230039395A1, “LSD AND […] EQUIVALENCE DETERMINATION” (Universitätsspital Basel, priority 2021, published 2023)

Assay: Plasma exposure of LSD and iso-LSD after LSD capsules in previous studies
Conditions: on average, from AUC24 of LSD and iso-LSD

Q: Which “share of LSD that may have isomerized to inactive iso-LSD in the capsules” value does the source give for `CCN(CC)C(=O)[C@@H]1C=C2c3cccc4[nH]cc(c34)C[C@H]2N(C)C1` [LSD, lysergic acid diethylamide] here?
A: 30%
